scFv variants of Ab-14 (light chain) against a SARS-CoV-2 spike peptide

Source: Li et al. 2023 (doi:10.1038/s41467-023-39022-2), MIT Lincoln Laboratory and A-Alpha Bio; data file from the FLAb repository.

Antigen: PDVDLGDISGINAS, a 14-residue peptide of the SARS-CoV-2 spike HR2 region.

The variants keep the heavy chain, the linker and the frameworks of Ab-14 (scFv order VH, three GGGGS repeats, VL).
VH: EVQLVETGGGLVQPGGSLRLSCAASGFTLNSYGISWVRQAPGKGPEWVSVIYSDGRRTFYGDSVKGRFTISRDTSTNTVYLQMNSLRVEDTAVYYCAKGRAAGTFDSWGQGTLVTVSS
VL: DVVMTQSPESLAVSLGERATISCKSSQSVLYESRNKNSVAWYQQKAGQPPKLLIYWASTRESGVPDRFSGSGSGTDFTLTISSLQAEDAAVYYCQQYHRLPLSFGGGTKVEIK

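The variants were designed computationally from a first round of random CDR variants and then made and measured. Their group label is 14L_Rand (Rand: our label for a block that the file lists under HC and that is probably the random mutants of the ten best first-round binders). The assay is AlphaSeq: two haploid yeast populations carry antibody and antigen on their surface. After mating in shaken culture at 30 °C for 16 h, diploids were selected and their barcode pairs sequenced. The ratio of observed to expected reads was calibrated, replicate by replicate, on BCL2-family standards whose Kd was known from biolayer interferometry. Each pool was mated in six replicate cultures.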

Each variant is given by its three light chain CDRs, as the data file delimits them; those of the parent are KSSQSVLYESRNKNSVA, WASTRES, QQYHRLPLS.
The read-out is the apparent dissociation constant on a log10 scale (nM): the lower, the stronger.
Replicates are averaged; those with no signal do not enter the mean.
Where no diploid with the target was found in that replicate, the entry reads "nd": below detection, most likely a poor binder, though not proof of it.
A sequence measured in both rounds can read differently, since the two assays cover different ranges.

| # | CDR-L1 | CDR-L2 | CDR-L3 | log10 Kd, replicates | mean log10 Kd (nM) | signal with controls |
|---|---|---|---|---|---|---|
| 1 | KSSQSWLYESRNKNSVA | CASTRES | QQYHRLPLS | 1.85 2.17 2.62 2.01 2.56 2.28 | 2.25 | 3/18 (3.00) |
| 2 | KSGQGVLYESRNKNSVA | GASTREY | VQYHRLPLS | nd nd nd nd nd nd | nd | 0/18 |
| 3 | KSSMCFLYESRNKNSVA | GASTRES | QQYHRLTWS | nd nd nd nd nd nd | nd | 0/18 |
| 4 | HSSPSVLYESRNKNSVA | PASTRES | QQYHRLPLS | 1.89 1.49 1.39 0.56 1.16 1.88 | 1.40 | 0/18 |
| 5 | HSSPSVLYESRLRNSVA | NASHRES | QQVHRLPLS | nd nd nd nd nd nd | nd | 1/18 (2.52) |
| 6 | KESQSWIYESRNKNSVA | GASTRES | QQYHRLPLS | 0.27 0.26 0.05 0.09 0.01 0.18 | 0.14 | 0/18 |
| 7 | KSSISYLGESRNKNYVA | EASTRES | QQYHMGPLG | 0.79 1.29 1.08 1.69 1.61 1.68 | 1.36 | 0/18 |
| 8 | KSSISYPYESRNKNIVA | EYSTRES | QQYHRLPLS | 1.45 1.97 nd 1.42 1.37 2.48 | 1.73 | 0/18 |
| 9 | KQSQSVLYESRNKNSVA | DASTRES | QMYHRLPLS | 0.38 -0.13 0.09 -0.04 0.10 0.30 | 0.12 | 2/18 (2.41) |
| 10 | KSSQMFLYESRNKNSVA | GASTRMS | QQYHRLTLS | nd nd nd nd nd nd | nd | 0/18 |
| 11 | KSSQSWLYESRVKNSVA | GAQTRES | QQYHRPPVS | nd nd nd nd nd nd | nd | 0/18 |
| 12 | KFSQSVLYESRTSNRVA | NASTRES | QQYHRLPLS | 0.45 0.61 0.49 0.45 0.44 0.60 | 0.51 | 4/18 (3.98) |
| 13 | HSSWVVLYESRNKNSVA | NASTRES | GQYHRLPLS | 1.49 1.08 1.78 1.45 1.39 1.42 | 1.43 | 0/18 |
| 14 | KKRQSTLYESRNKNSVA | WASTRES | QQYHRLHLS | nd nd nd nd nd nd | nd | 0/18 |
| 15 | KSGQYVLYTSRNKNSVA | GASTRES | QQYTRLPLS | 1.22 1.22 0.88 1.15 1.15 0.66 | 1.05 | 0/18 |
| 16 | KSSQSVLFESRNKNSVA | DASTRES | QQYHRLCLS | -0.19 0.74 -0.26 0.51 1.28 0.58 | 0.44 | 0/18 |
| 17 | KFSQSVLYEKRTKNSVV | NASTRES | QQIHRGPLS | nd nd nd nd nd nd | nd | 0/18 |
| 18 | KSLQSVLYESRNKNFVA | HASTLED | QQYHCLPLS | nd nd nd nd nd nd | nd | 0/18 |
| 19 | KLRMSTLYESRNKNSVA | WASTRES | QQYHRLPLS | 0.76 0.58 0.68 0.48 0.31 -0.06 | 0.46 | 0/18 |
| 20 | ESSQSVLFESRNKNSVA | DACTRES | QQYHRLPLS | 0.78 0.46 0.35 0.41 0.41 0.46 | 0.48 | 3/18 (3.30) |
| 21 | KSGQGVNYESRNSNSVA | GASTRES | QQYHRLPLS | 0.45 0.28 0.24 -0.02 0.04 0.09 | 0.18 | 0/18 |
| 22 | DSSQSWLYESRNKNSVA | GASTRES | QQYHRLPLS | -0.41 -0.58 -0.51 -0.69 -0.61 -0.41 | -0.54 | 0/18 |
| 23 | KSSQSVLGEQRNKNSVA | DISTRES | QQYHRLPLS | 0.78 0.31 -0.29 0.56 0.12 0.23 | 0.29 | 0/18 |
| 24 | KSSQSFLYESRNFNSVA | GASTRES | QQYHRLTLS | 0.49 0.00 0.30 0.37 -0.37 0.05 | 0.14 | 0/18 |

From the list, the first 2 with no signal in any replicate:

CDR-L1	CDR-L2	CDR-L3	log10 Kd, replicates	mean log10 Kd (nM)	signal with controls
KSGQGVLYESRNKNSVA	GASTREY	VQYHRLPLS	nd nd nd nd nd nd	nd	0/18
KSSMCFLYESRNKNSVA	GASTRES	QQYHRLTWS	nd nd nd nd nd nd	nd	0/18

In the paper, a design with two or fewer of six values counts as a poor binder.
Three control strains display no target. For all light chain designs, 4% of the pairings with them gave a signal, with a median of 2.64 and one signal in twenty below 1.59, so weak values seen in few replicates may be background. Also given: how often the same scFv was detected with the empty control strains, with their mean in brackets.